Laboratory results as given in patent US8877779B2 (priority 2007, dated 2014).

Sequences of proteins named here, by UniProt entry; tags and fusion partners are left off.
UniProt P41146, whole entry: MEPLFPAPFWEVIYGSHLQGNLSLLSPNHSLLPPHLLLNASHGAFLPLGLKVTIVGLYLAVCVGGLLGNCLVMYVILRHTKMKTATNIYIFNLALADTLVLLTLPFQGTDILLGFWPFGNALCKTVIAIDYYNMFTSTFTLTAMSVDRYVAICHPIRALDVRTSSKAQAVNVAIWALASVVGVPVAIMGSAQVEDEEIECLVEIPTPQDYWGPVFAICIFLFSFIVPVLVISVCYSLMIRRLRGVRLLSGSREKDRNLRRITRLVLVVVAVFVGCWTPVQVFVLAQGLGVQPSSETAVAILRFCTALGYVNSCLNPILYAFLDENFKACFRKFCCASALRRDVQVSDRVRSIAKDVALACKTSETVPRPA

Molecular target: human ORL-1 receptor (Homo sapiens, UniProt P41146)
Experiment: ORL-1 receptor-binding test ([3H]-nociceptin)
Details: read-out: Affinity Ki (nM) ORL-1, membrane of HEK293 cell expressing human ORL-1 receptor
Experimental: Using a receptor membrane product prepared from HEK293 cell forcively expressing human ORL-1 receptor, a [^3H]-nociceptin binding test was performed. To be specific, a test substance solution (50 μL) having various concentrations, a receptor product solution (900 μL) and a labeled ligand [^3H]-nociceptin (50 μL) were successively added to a polypropylene tube and reacted at 25° C. for 60 min. The reaction mixture was filtered by suction in a cell harvester using a glass filter Whatman GF/B. The filter was washed 3 times with ice-cooled 50 mmol/L HEPES buffer, and placed in a measurement vial. A liquid scintillation cocktail ACS-II (Amersham) (2 mL) was added, and the radiation dose was measured by a liquid scintillation counter (LSC-5100, Aloka). The non-specific binding level was determined using an unlabeled ligand naltrexone. The binding inhibitory rate (%) and inhibitory constant (Ki value) were calculated according to the following calculation formula. binding inhibitory rate (%)={1−(B−N)/(T−N)}×100 N: non-specific binding level, T: total binding level, B: binding level in the presence of a test substance inhibitory constant (Ki value)=IC50/(1+L/Kd) IC50: 50% inhibitory concentration, L: labeled ligand concentration, Kd: dissociation constant of labeled ligand

Structure (SMILES): CNC(=O)Cn1c(=O)n(C2CCN(C3CCCc4c(C)cccc43)CC2)c2ccccc21 (stereo not shown)
- Ki: < 10 nM
